In experiment [1] the target is chimpanzee Androgen Receptor (AR), AR (gene 747460) (UniProt O97775). Nature of the experiment: NVS_NR_cAR: NovaScreen (NVS) Nuclear Receptor Binding Assay for chimpanzee Androgen Receptor (AR) (AID 2283346).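 Also: radioligand displacement from AR measured by scintillation counting in a cell-free assay; a loss of bound radioligand signal versus DMSO counts as binding.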 Put shortly:
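Cell-free competition binding with insect-cell (Sf9/Sf21) extracted chimpanzee AR; scintillation signal from lysate at 72 h. Screened in duplicate at 25 uM, then concentration-response for actives; fitting relative to DMSO.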

By UniProt entry, the sequences of proteins in these tests, tags left out.
UniProt O97775, whole entry: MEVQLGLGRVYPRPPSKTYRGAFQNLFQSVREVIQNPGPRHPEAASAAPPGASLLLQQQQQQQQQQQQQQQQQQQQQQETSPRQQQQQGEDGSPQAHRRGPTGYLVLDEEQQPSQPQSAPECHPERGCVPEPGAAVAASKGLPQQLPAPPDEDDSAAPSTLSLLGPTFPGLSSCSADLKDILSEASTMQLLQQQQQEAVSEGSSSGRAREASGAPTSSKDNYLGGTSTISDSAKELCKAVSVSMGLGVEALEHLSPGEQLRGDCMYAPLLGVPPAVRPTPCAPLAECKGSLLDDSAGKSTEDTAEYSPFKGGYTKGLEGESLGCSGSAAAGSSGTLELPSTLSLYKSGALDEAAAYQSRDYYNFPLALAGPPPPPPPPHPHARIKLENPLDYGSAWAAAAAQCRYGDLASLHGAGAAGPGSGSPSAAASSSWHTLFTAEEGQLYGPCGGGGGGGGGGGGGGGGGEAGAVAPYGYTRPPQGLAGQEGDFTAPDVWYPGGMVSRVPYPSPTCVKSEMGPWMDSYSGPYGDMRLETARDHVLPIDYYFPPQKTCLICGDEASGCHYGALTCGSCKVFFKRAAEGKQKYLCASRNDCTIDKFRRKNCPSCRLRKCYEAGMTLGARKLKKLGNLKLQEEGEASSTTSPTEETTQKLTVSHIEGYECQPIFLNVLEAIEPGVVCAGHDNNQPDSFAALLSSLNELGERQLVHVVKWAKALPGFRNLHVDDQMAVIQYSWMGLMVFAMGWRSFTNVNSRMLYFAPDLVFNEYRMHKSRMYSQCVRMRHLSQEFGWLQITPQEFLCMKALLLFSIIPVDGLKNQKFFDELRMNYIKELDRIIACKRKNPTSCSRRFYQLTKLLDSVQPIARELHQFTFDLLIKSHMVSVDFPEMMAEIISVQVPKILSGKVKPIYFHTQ
UniProt P10275, whole entry: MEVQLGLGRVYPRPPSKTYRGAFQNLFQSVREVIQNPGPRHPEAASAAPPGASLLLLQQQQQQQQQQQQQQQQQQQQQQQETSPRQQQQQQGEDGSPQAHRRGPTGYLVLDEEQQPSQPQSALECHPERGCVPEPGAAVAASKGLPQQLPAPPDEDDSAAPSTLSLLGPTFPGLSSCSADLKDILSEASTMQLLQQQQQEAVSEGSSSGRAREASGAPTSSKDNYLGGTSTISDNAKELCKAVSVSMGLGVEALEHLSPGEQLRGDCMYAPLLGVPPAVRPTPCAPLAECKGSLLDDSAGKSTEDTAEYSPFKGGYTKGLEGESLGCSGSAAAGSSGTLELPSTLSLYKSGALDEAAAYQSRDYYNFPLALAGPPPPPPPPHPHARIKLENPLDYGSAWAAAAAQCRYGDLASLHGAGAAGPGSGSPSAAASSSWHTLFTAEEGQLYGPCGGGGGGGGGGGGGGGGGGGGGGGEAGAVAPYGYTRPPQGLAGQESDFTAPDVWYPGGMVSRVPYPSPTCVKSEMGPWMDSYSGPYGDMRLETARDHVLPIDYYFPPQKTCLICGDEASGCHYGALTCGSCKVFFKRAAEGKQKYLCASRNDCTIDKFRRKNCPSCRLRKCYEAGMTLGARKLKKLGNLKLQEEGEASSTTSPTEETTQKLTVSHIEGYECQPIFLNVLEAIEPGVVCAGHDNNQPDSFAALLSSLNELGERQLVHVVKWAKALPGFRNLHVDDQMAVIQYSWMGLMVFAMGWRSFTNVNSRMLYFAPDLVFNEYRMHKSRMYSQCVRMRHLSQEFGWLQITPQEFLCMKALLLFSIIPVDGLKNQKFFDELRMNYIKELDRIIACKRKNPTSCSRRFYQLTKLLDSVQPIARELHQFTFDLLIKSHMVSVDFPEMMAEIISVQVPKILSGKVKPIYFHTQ
UniProt P37231, whole entry: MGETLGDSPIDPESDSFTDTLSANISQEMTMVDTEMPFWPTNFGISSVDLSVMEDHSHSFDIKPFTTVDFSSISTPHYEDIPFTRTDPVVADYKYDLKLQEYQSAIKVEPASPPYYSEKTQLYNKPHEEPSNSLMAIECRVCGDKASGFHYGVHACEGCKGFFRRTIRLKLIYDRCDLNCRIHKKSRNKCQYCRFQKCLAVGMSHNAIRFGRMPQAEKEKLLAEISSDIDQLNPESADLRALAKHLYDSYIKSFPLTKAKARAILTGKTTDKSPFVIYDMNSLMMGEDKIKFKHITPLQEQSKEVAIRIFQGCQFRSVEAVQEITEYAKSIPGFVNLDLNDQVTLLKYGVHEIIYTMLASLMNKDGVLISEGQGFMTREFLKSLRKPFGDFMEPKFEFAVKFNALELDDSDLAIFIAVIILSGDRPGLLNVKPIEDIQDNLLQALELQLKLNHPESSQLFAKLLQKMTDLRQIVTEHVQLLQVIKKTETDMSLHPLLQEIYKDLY
UniProt P19793, whole entry: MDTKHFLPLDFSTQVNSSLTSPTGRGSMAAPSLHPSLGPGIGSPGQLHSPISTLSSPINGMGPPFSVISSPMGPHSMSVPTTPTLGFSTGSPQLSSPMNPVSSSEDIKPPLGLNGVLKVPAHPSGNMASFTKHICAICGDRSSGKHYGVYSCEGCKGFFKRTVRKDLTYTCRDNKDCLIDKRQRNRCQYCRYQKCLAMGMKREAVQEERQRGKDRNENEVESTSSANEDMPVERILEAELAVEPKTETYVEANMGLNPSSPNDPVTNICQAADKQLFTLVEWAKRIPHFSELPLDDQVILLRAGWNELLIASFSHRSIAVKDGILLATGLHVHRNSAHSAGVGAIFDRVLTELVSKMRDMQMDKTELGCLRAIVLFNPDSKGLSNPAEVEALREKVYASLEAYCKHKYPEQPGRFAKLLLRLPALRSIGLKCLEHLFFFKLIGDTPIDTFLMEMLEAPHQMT
UniProt Q96RI1, whole entry: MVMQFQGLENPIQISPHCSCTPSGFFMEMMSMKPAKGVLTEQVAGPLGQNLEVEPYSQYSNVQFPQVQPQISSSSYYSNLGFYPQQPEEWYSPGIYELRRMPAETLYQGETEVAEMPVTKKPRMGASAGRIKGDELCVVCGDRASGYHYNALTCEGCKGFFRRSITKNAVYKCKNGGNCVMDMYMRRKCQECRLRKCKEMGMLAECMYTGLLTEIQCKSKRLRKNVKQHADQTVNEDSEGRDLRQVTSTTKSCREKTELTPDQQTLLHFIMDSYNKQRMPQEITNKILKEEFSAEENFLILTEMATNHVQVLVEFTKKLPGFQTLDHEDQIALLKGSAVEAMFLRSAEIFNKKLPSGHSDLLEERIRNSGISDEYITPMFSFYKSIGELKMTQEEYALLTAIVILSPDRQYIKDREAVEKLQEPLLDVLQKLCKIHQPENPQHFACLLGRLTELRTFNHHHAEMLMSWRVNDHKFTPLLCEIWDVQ
UniProt Q01827, whole entry: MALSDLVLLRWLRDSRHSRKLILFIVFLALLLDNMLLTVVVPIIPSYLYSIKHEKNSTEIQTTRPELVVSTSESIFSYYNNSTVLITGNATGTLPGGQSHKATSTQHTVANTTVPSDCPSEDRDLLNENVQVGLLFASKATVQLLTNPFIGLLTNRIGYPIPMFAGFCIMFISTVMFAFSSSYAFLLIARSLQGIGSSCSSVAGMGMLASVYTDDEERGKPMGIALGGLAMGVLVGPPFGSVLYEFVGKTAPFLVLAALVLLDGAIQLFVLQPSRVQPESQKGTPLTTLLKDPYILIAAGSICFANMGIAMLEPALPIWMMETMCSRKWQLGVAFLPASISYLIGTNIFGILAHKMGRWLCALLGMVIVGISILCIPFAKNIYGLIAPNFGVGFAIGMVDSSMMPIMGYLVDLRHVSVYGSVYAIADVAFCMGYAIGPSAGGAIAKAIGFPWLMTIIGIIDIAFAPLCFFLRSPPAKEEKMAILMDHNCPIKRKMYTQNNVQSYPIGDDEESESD
UniProt P49884, whole entry: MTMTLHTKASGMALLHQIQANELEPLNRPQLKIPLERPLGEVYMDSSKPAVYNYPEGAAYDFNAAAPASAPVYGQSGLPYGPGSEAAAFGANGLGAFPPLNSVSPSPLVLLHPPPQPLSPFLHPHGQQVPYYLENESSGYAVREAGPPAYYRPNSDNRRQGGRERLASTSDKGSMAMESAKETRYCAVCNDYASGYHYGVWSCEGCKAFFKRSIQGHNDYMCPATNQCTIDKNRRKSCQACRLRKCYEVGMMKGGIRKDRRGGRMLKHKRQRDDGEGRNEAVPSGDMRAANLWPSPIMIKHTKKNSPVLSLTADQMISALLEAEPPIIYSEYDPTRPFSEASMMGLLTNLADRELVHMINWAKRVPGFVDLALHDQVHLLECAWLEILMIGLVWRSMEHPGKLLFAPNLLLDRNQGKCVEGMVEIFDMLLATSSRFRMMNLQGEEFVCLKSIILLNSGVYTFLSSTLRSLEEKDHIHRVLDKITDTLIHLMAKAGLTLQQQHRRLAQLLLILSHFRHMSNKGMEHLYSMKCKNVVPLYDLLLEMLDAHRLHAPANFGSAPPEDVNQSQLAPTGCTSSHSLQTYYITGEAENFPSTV
UniProt P03372, whole entry: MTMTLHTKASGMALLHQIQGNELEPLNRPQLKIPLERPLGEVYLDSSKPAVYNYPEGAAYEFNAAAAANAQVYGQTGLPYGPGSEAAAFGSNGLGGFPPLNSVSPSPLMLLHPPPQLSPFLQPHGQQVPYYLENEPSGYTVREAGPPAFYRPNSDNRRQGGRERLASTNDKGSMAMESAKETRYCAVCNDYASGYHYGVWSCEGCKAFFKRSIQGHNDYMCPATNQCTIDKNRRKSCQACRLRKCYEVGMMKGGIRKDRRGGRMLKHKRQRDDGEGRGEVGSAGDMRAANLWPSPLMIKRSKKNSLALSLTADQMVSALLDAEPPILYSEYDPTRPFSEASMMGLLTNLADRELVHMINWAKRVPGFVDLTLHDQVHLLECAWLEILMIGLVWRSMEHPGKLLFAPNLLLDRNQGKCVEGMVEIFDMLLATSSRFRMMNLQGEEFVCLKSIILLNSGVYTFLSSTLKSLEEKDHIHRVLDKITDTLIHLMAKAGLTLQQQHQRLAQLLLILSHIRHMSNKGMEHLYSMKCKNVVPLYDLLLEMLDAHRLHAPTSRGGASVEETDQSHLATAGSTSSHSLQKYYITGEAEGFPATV
UniProt Q92731, whole entry: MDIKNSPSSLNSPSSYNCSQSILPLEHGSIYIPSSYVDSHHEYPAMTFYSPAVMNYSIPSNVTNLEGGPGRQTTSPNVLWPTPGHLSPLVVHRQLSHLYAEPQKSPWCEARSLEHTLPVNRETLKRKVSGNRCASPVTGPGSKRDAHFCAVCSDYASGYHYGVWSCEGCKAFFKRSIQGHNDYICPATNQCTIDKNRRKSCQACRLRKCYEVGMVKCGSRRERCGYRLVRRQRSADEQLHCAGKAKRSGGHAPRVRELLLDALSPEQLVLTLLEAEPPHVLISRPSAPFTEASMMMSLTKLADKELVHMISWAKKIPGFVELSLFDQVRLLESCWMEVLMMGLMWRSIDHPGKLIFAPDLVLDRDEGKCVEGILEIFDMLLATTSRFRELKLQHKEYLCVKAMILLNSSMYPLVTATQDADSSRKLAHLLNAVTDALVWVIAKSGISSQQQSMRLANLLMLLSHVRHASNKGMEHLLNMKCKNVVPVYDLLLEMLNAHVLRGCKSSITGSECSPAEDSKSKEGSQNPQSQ
UniProt P31652, whole entry: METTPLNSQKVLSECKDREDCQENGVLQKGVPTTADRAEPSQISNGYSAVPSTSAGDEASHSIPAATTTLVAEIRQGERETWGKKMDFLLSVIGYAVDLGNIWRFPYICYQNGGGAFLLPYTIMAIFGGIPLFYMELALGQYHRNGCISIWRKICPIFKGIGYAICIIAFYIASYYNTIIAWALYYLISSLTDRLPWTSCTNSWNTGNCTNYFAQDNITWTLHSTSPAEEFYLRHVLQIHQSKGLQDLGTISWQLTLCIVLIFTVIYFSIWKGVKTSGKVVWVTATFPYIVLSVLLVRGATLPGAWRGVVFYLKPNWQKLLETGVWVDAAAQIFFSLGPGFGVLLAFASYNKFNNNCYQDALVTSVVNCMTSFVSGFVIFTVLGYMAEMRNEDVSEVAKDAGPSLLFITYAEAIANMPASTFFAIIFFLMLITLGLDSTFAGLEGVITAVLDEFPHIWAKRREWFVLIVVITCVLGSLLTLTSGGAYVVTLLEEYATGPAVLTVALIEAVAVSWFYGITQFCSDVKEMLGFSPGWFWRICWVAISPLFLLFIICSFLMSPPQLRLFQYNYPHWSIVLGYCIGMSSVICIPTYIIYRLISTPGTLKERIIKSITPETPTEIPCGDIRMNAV

Experiment [2] has as its target Androgen Receptor/SRC-1 Co-activator, AR (gene 367) (UniProt P10275). Nature of the experiment: OT_AR_ARSRC1_0960: Odyssey Thera (OT) 16-hour HEK293T Protein-Complementation Assay for Androgen Receptor/SRC-1 Co-activator (AID 2283353).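 Also: actives raise the signal above DMSO so potency reflects increased AR and SRC-1 complex.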 Put shortly:
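Split-Venus PCA, AR/SRC-1 fusions, stable HEK293T; 16 h compound exposure; imaged at 488 and 635 nm; N/C ratio (488 nm channel), min 400 cells/image; positive-direction fit, DMSO baseline.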

For experiment [3] the target is unchanged. Nature of the experiment: OT_AR_ARSRC1_0480: Odyssey Thera (OT) 8-hour HEK293T Protein-Complementation Assay for Androgen Receptor/SRC-1 Co-activator (AID 2283354).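 Also: hits raise the complementation signal above DMSO so AC50 marks enhancers.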 Put shortly:
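Measures AR/SRC-1 binding by Venus YFP fragment complementation in HEK293T stable lines at 8 h post-dose. Imaging quantifies the 488nm nucleus/cytoplasm ratio in ≥400 cells; DMSO defines baseline.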

Experiment [4] has as its target Peroxisome proliferator-activated receptor gamma (Homo sapiens) (UniProt P37231). Nature of the experiment: NVS_NR_hPPARg: NovaScreen (NVS) Nuclear Receptor Binding Assay for human Peroxisome Proliferator-activated Receptor gamma (PPARg) (AID 2283370). Put shortly:
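Fluorescence polarization readout of ligand binding to extracted human PPARg, measured at 2 h. Duplicate single-point screen at 25 uM, then concentration-series retesting; activity defined as signal loss versus DMSO.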

Experiment [5] has as its target Agonist Androgen Response Element (ARE), AR (gene 367) (UniProt P10275). Nature of the experiment: OT_AR_ARELUC_AG_1440: Odyssey Thera (OT) 24-hour CHO-K1 Luciferase Assay for Agonist Androgen Response Element (ARE) (AID 2283379). Summed up:
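Agonist mode, 24 h exposure in CHO-K1 ARE-luciferase cells; values reflect luminescence induction over vehicle.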

The target in experiment [6] is Retinoic acid receptor RXR-alpha (Homo sapiens) (UniProt P19793). Nature of the experiment: OT_NURR1_NURR1RXRa_0480: Odyssey Thera (OT) 8-hour HEK293T Protein Complementation Assay for Nurr1/retinoid X receptor (RXR) (AID 2283385). Put shortly:
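8 h compound exposure, HEK293T; Nurr1/RXRα fragment complementation; fluorescence intensity; positive fitting direction vs DMSO baseline.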

Experiment [7] concerns the target Bile acid receptor (Homo sapiens) (UniProt Q96RI1). Nature of the experiment: OT_FXR_FXRSRC1_1440: Odyssey Thera (OT) 24-hour HEK293T Protein-Complementation Assay for Farnesoid X receptor/SRC-1 Co-activator (AID 2283384). Put shortly: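 Compounds are applied to human kidney HEK293T cells expressing bait and prey fused to reporter protein fragments; after 24 h, reconstituted reporter fluorescence is measured. Activity is fitted as signal gain over DMSO.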

The target in experiment [8] is Norway rat Vesicular Monoamine Transporter (VMAT2), neurotransmitter transporter, Slc18a2 (gene 25549) (UniProt Q01827). Nature of the experiment: NVS_TR_rVMAT2: NovaScreen (NVS) Transporter Assay for Norway rat Vesicular Monoamine Transporter (VMAT2), neurotransmitter transporter (AID 2283376).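 Also: actives lower the bound radioligand signal below the DMSO level.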 Put shortly: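 Tissue: rat forebrain extract. Format: competitive radioligand binding, cell-free. Timepoint: 1 h. Readout: filter radiodetection/scintillation. Screen: 25 uM in duplicate, then concentration series for actives. Baseline: DMSO.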

Experiment [9] deals with bovine Estrogen Receptor (ER), ESR1 (gene 407238) (UniProt P49884). Nature of the experiment: NVS_NR_bER: NovaScreen (NVS) Nuclear Receptor Binding Assay for bovine Estrogen Receptor (ER) (AID 2283345).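 Also: actives lower the bound radioligand count which means they displace the ER ligand.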 Put shortly:
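Cell-free radioligand binding with receptor from bovine uterine membranes, read by scintillation counting 18 h after dosing. Loss of specific binding was scored against DMSO; primary screen at 25 uM in duplicate, actives then run as concentration series.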

In experiment [10] the target is Estrogen receptor (Homo sapiens) (UniProt P03372). Nature of the experiment: NVS_NR_hER: NovaScreen (NVS) Nuclear Receptor Binding Assay for human Estrogen Receptor (ER) (AID 2283348). Summed up:
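Scintillation signal from bound radioligand was measured 18 hours after chemical addition to cell-free MCF7 protein extracts, with DMSO as baseline. Activity was scored as signal loss; compounds ran first at 25 uM in duplicate.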

For experiment [11] the target is unchanged. Nature of the experiment: OT_ER_ERaERa_1440: Odyssey Thera (OT) 24-hour HEK293T Protein-Complementation Assay for Estrogen Receptor-alpha/-alpha Homodimer (AID 2283349).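 Also: hits raise fluorescence above DMSO for agonists and antagonists alike.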 Put shortly:
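Protein-fragment complementation between two human ERα ligand-binding domains (aa 310-547) in stably transfected HEK293T cells was monitored after 24 h treatment, using fluorescence intensity relative to vehicle controls.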

The target is the same in experiment [12]. Nature of the experiment: OT_ER_ERaERa_0480: Odyssey Thera (OT) 8-hour HEK293T Protein-Complementation Assay for Estrogen Receptor-alpha/-alpha Homodimer (AID 2283351).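 Also: rise in fluorescence from reassembled reporter fragments on ERα LBD homodimer in nucleus or whole cell.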 Put shortly:
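HEK293T, stable ERα LBD (aa 310-547) PCA homodimer; 8 h compound exposure; fluorescence intensity, laser scanning cytometer; positive fitting direction, DMSO baseline.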

Experiment [13] concerns the target T1, Estrogen receptor (Homo sapiens) + Estrogen receptor beta (Homo sapiens) (UniProt P03372+Q92731). Nature of the experiment: OT_ER_ERaERb_0480: Odyssey Thera (OT) 8-hour HEK293T Protein-Complementation Assay for Estrogen Receptor-alpha/-beta Heterodimer (AID 2283352). Summed up:
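Fluorescence increase from reconstituted reporter fragments, quantified by laser scanning cytometer, reflects ER-alpha/ER-beta heterodimer formation in human HEK293T cells. Exposure 8 h; positive-direction fitting against DMSO vehicle.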

Experiment [14] has as its target T1, Estrogen receptor (Homo sapiens) + Estrogen receptor beta (Homo sapiens). Nature of the experiment: OT_ER_ERaERb_1440: Odyssey Thera (OT) 24-hour HEK293T Protein-Complementation Assay for Estrogen Receptor-alpha/-beta Homodimer (AID 2283356).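 Also: heteromer of ER alpha and ER beta binding domains; hits raise reporter fluorescence and both agonists and antagonists give an increase.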 Put shortly:
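Fragment complementation between ER alpha (310-547) and ER beta (263-489) ligand-binding domains in HEK293T cells; signal read 24 h post-dosing by laser scanning cytometer. Gain of fluorescence relative to DMSO fitted.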

Experiment [15] addresses Estrogen receptor beta (Homo sapiens) (UniProt Q92731). Nature of the experiment: OT_ER_ERbERb_0480: Odyssey Thera (OT) 8-hour HEK293T Protein-Complementation Assay for Estrogen Receptor-beta/-beta Homodimer (AID 2283357).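 Also: active means signal gain over DMSO baseline.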 Summed up: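 Cells (HEK293T, stable ER-beta LBD PCA pair) are treated 8 hours, fixed and Draq5-stained; signal is fluorescence intensity increase relative to vehicle, fitted in the gain direction.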

Experiment [16] has the same target. Nature of the experiment: OT_ER_ERbERb_1440: Odyssey Thera (OT) 24-hour HEK293T Protein-Complementation Assay for Estrogen Receptor-beta/-beta Homodimer (AID 2283380).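 Also: fluorescence gain from ER beta LBD homodimer complementation read by laser scanning cytometry; scored as signal increase over DMSO baseline for both agonists and antagonists.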 Summed up: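 Fluorescence increase, nuclear for agonists or whole-cell for antagonists, relative to DMSO vehicle, quantified by laser scanning cytometer after fixation and Draq5 staining. Readout from 24 h treatment of HEK293T cells carrying complementation-paired ER beta LBD (aa 310-547).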

Experiment [17] has as its target Estrogen receptor (Homo sapiens) (UniProt P03372). Nature of the experiment: OT_ERa_GFPERaERE_0480: Odyssey Thera (OT) 8-hour HeLa Transcription Induction Assay for Estrogen Receptor (AID 2283381; active = hit-call score of the fitted dose curve at least 0.9, where 1 is the maximum; inactive = score below 0.9). Put shortly: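 Fluorescent reporter signal, imaged by microscopy and scored with image-analysis algorithms, was taken 8 h after chemical dosing of HeLa cells; activity was fitted upward relative to DMSO.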

Experiment [18] shares this target. Nature of the experiment: OT_ERa_GFPERaERE_0120: Odyssey Thera (OT) 2-hour HeLa Transcription Induction Assay for Estrogen Receptor (AID 2283382). Put shortly:
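HeLa, 384-well, 2 h chemical exposure; GFP reporter induction (ERE), fluorescence microscopy; high content image analysis; positive fitting direction vs DMSO.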

Experiment [19] concerns the target Bile acid receptor (Homo sapiens) (UniProt Q96RI1). Nature of the experiment: OT_FXR_FXRSRC1_0480: Odyssey Thera (OT) 8-hour HEK293T Protein-Complementation Assay for Farnesoid X receptor/SRC-1 Co-activator (AID 2283383). Summed up:
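Human kidney HEK293T cells carried FXR/SRC-1 fragment-complementation constructs. Compounds were added and incubated 8 h. Reporter reassembly upon receptor–co-activator interaction was then quantified by fluorescence, with curves fitted in the positive direction relative to DMSO.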

The target in experiment [20] is rat Serotonin Transporter (SERT), Slc6a4 (gene 25553) (UniProt P31652). Nature of the experiment: NVS_TR_rSERT: NovaScreen (NVS) Transporter Assay for rat Serotonin Transporter (SERT) (AID 2283375). Summed up:
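Radioligand binding with competitive displacement on rat forebrain membrane preparations, counted by filtration and scintillation after 1 h. Primary single-point duplicates at 25 uM; active chemicals followed up in concentration-response. DMSO served as baseline.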

Consider 7 molecules from PubChem BioAssay (EPA / NIEHS).

The list shows a part of the results, in another mix than the full data. Results filed as inconclusive are left out. Calls of active or inactive are those of the source. The calls were made as follows, unless noted: active = hit-call score of the fitted dose curve at least 0.9, where 1 is the maximum; inconclusive = response in the unintended direction; inactive = score below 0.9.

Usually AC50 stands for the concentration at which the activity in the assay is half-maximal. Consider `Cc1cccc([N+](=O)[O-])c1[N+](=O)[O-]`, for which the AC50 in experiment [1] was active: 11.6 µM. In addition, the call in [2], in experiment [3], in experiment [4], in experiment [5] and in experiment [6] was inactive.
In the case of `Cc1c([N+](=O)[O-])cccc1[N+](=O)[O-]`, the result in experiment [1], in experiment [7] and in experiment [6] was inactive.
With `Cc1ccc([N+](=O)[O-])cc1[N+](=O)[O-]`, the AC50 in [8] is active: 15.9 µM. The molecule was classed as inactive in experiment [6].
For the molecule `O=[N+]([O-])OCC(CO[N+](=O)[O-])(CO[N+](=O)[O-])CO[N+](=O)[O-]`, the molecule was classed as inactive in experiment [9], in [10], in experiment [11], in experiment [12], in [13] and in [2]. The outcome in [14], in experiment [15], in [4], in experiment [5], in experiment [16] and in experiment [17] was inactive. Besides, the call in [18] and in experiment [19] was inactive.
As for `CC(C)OP(C)(=O)OC(C)C`, the call in experiment [11], in [12], in [13], in experiment [14], in experiment [16] and in [17] was inactive. The call in experiment [18] and in experiment [6] was inactive. In experiment [20], the AC50 is active: 9.8 µM.
`O=[N+]([O-])c1cccc([N+](=O)[O-])c1`: the call in experiment [11], in experiment [12], in experiment [13], in experiment [14], in experiment [15] and in experiment [16] was inactive. Further, the molecule was classed as inactive in experiment [17], in experiment [18], in experiment [19], in [7] and in [6].
Turning to `COP(C)(=O)OC`, the call in experiment [11], in [12], in experiment [13], in experiment [14], in experiment [15] and in experiment [16] was inactive. In addition, the outcome in experiment [17] and in experiment [18] was inactive.
